Experimental data taken from ChEMBL document CHEMBL1250453, “Novel approaches for targeting thymidylate synthase to overcome the resistance and toxicity of anticancer drugs” (J Med Chem, 2010).

Biological target: T1, Dihydrofolate reductase (Homo sapiens, UniProt P00374)
T1 sequence (P00374 whole entry): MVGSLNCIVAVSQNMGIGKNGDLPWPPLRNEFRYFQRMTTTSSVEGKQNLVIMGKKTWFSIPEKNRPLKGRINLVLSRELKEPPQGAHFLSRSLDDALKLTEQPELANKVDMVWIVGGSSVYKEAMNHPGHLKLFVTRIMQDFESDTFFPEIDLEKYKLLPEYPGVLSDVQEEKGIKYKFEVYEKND
Assay: Inhibition of DHFR

Ki: 7.2 nM
Compound: Nc1nc2[nH]cc(CCc3ccc(C(=O)N[C@@H](CCC(=O)O)C(=O)O)cc3)c2c(=O)[nH]1 [PEMETREXED]
